Structures are written as SMILES.

Sequences of proteins named here, by UniProt entry; tags and fusion partners are left off.
UniProt P56373, whole entry: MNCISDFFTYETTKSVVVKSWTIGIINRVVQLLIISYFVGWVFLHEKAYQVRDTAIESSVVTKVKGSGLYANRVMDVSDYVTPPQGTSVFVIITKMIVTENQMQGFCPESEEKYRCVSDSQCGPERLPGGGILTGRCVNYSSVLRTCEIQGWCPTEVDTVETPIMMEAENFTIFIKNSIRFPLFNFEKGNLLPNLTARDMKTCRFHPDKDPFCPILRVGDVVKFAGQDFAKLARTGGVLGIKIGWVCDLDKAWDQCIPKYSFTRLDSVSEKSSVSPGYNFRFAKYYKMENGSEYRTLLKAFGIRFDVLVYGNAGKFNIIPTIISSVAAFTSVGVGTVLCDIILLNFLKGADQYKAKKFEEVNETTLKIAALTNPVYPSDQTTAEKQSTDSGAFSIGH

The assay addresses human P2X3 receptor (Homo sapiens (Human), UniProt P56373). As to the kind of experiment: P2X3 receptor inhibition, ATP-evoked Fluo-3 calcium fluorescence (FDSS 3000). Conditions: read-out: P2X3 IC50; C6BU-1 cell transfected with human P2X3 receptor gene; ATP-evoked Fluo-3 fluorescence. The format is cell-based.

In the case of `COc1ccccc1C1C(C(=O)CC(C)C)=C(O)C(=O)N1c1ccc(SC)cc1` (stereo not shown), the IC50 was 125 nM.

Turning to `Cc1nc(-c2ccc(N3C(=O)C(O)=C(C(=O)CC(C)C)C3c3ccccc3OCC#N)cc2)no1` (stereo not shown), the IC50 is 174 nM.

`Cc1noc(-c2ccc(N3C(=O)C(O)=C(C(=O)C(C)C)C3c3ccccc3OC(C)C)cc2)n1` (stereo not shown): the concentration for half-maximal inhibition (IC50) worked out at 232 nM.

Take `COc1ncccc1C1c2c(C(C)(C)C)n[nH]c2C(=O)N1c1ccc(N(C)C)cc1` (stereo not shown): the IC50 worked out at 505 nM.

(Values after patent publication US8575197B2, “Pyrolinone derivative and pharmaceutical composition comprising the same” (Shionogi & Co., Ltd., priority 2008, dated 2013).)
